From PubChem BioAssay AID1203 (The Scripps Research Institute Molecular Screening Center, 2008) come the findings set out here.

Structures are written as SMILES. This is a selection; strong and weak results do not stand in their true shares. Calls of active or inactive are those of the source.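 Rule for the calls: active = activation above the mean across all tested compounds plus 3 SD, cutoff set per campaign (cut at about 5.5% in these data); inactive = the rest.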

A short description of the experiment: Hsp70 promoter-driven reporter induction – cell-based, HeLa, Hsp70 promoter luciferase, luminescence, 10 µM, primary screen (AID 1203).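 Note: 100% = MG132 at 30 µM as the positive control and 0% = DMSO.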 The settings on record: at 10 µM, stronger effect = higher value, scaled: vehicle 0, proteasome-inhibitor control 100%.
As to `O=C(NC(Sc1ccncn1)C(Cl)(Cl)Cl)c1ccccc1` (stereo not given), the activation is inactive: 0.11%.

With `Cc1c2non([O-])c-2c(C)[n+](=O)[n+]1[O-]`, the activation is inactive: -0.02%. The result for `Oc1ccccc1CNc1ccccn1` reads inactive: 0.34%; that for `CC(C)CC(=O)NC(Sc1ccc(Cl)cc1)C(Cl)(Cl)Cl` (stereo not given), inactive: -0.11%; that for `Cc1ccc(N/C(=N/P(=O)(N2CCOCC2)N2CCOCC2)N2CCOCC2)cc1`, inactive: -0.27%.

For the compound `NC(=O)c1cc([N+](=O)[O-])cc([N+](=O)[O-])c1N`, the activation was inactive: -0.27%.

`CN1CCCC(OC(=O)C(c2ccccc2)c2ccccc2)C1` (stereo not given): the activation is inactive: -0.48%.

With `Clc1ccc(Cl)c(NC2=NCC(CBr)S2)c1` (stereo not given), the activation is inactive: -0.26%. In the case of `COc1ccccc1OP(=O)(Nc1ccc(C)cn1)Oc1ccccc1OC`, the activation is inactive: -0.07%.

`CCN(N=Nc1nonc1N)c1nonc1N`: the activation is inactive: -0.24%. Then `Cc1cc(SC(NC(=O)c2ccc(F)cc2)C(Cl)(Cl)Cl)ncn1` (stereo not given), with inactive: -0.28%.

With `CCOP(=O)(Nc1ccccc1)OCC`, the activation was inactive: -0.23%. The result for `O=[N+]([O-])c1ncn(CCn2ncnc2[N+](=O)[O-])n1` reads inactive: 0.45%; that for `CCN(/C(=N/P(=O)(N1CCOCC1)N1CCOCC1)N1CCOCC1)c1ccc(OC)cc1`, inactive: -0.2%; that for `CC1CCN(C(=O)Oc2c(Cl)cc(Cl)c3cccnc23)CC1`, inactive: 0.07%. With `CN(C)C(=O)OCCc1n(C)cc[n+]1C`, the activation was inactive: -0.33%. Then `CC(C)=N/N=C(\N)N[N+](=O)[O-]`, with inactive: -0.45%. As for `COc1ccc(C2=NCC(CBr)S2)cc1` (stereo not given), the activation was inactive: -0.13%. Then `O=[N+]([O-])c1cc([N+](=O)[O-])c(CCNc2ccccc2)c([N+](=O)[O-])c1`, with inactive: -0.33%. Take `CCc1nc2c(n1)c1c(non1O)c1c2no[n+]1[O-]`: the activation is inactive: 0.67%. For the compound `Cc1ccc(NP(=O)(Oc2ccccc2)Oc2ccccc2)nc1`, the activation was inactive: 0.18%. In the case of `CC(=O)N1C2C3N(C(C)=O)C1C1N(C(C)=O)C(C(N1C(C)=O)N3C(C)=O)N2C(C)=O`, the activation is inactive: 0.06%.

As for `O=[N+]([O-])c1cccc2n[nH]nc12`, the activation is inactive: 0.06%. Turning to `O=P(Nc1nccs1)(c1ccccc1)c1ccccc1`, the activation was inactive: -0.45%. With `CC(C)C(=O)NC(Sc1ccccc1)C(Cl)(Cl)Cl` (stereo not given), the activation is inactive: -0.31%.

For `c1nnnn1CCn1cnnn1`, the activation is inactive: -0.27%. Then `CC(=O)NC(SC(=S)N(C)C)C(Cl)(Cl)Cl` (stereo not given), with inactive: 0.32%; and `O=C(OC1CN2CCC1CC2)c1cccc(Cl)c1` (stereo not given), with inactive: -0.49%.

In the case of `C(Cc1nn[nH]n1)Cc1nn[nH]n1`, the activation was inactive: -0.12%.

On to `O=P(Nc1ccccn1)(c1ccc(Br)cc1)c1ccc(Br)cc1`, for which the activation was inactive: -0.24%. The result for `CCC(=O)N1C2C3N(C(=O)CC)C1C1N(C(=O)CC)C(C(N1C(=O)CC)N3C(=O)CC)N2C(=O)CC` reads inactive: 0.01%. Consider `CC(=O)NC(SC(=S)N(CC(C)C)CC(C)C)C(Cl)(Cl)Cl` (stereo not given), for which the activation is inactive: -0.35%.

`Cc1ccc(OP(=O)(Nc2ccccn2)Oc2ccc(C)cc2)cc1`: the activation is inactive: -0.32%. Then `COC(=O)c1cc2c(s1)N=C(c1ccccc1)N(C)P2(=O)N1CCOCC1` (stereo not given), with inactive: -0.53%; and `O=c1c2cc([N+](=O)[O-])ccc2[nH]c2c([N+](=O)[O-])cc([N+](=O)[O-])cc12`, with inactive: -0.42%. The result for `CCOC(=O)NC(Sc1ccccc1)C(Cl)(Cl)Cl` (stereo not given) reads inactive: -0.35%; that for `c1ccc(-c2nn[nH]n2)c(-c2nn[nH]n2)c1`, inactive: -0.14%.

Consider `O=C(NC1CCS(=O)(=O)C1)NP(=S)(Oc1ccccc1)Oc1ccccc1` (stereo not given), for which the activation is inactive: 0%. For `CCNC(=S)/N=C(\N)N[N+](=O)[O-]`, the activation was inactive: 0.8%. The result for `CC(=O)Nc1ccc(Oc2c([N+](=O)[O-])cc([N+](=O)[O-])cc2[N+](=O)[O-])cc1` reads inactive: -0.17%. Regarding `CCOc1ccc(C2=NCC(CBr)S2)cc1` (stereo not given), the activation is inactive: -0.2%. Take `O=P1(Nc2nc3ccc(Cl)cc3s2)COc2ccccc2O1` (stereo not given): the activation is inactive: -0.29%.

With `CC(C)(C)C(=O)NC(Sc1ccccc1)C(Cl)(Cl)Cl` (stereo not given), the activation is inactive: -0.08%. The result for `Cc1ccc(NCCc2c([N+](=O)[O-])cc([N+](=O)[O-])cc2[N+](=O)[O-])cc1` reads inactive: 0.02%. Then `CCOP(=O)(Nc1cccc2ccccc12)OCC`, with inactive: -0.43%; and `COc1cc(C2NCCC3(OCCO3)C2(C)C)cc(OC)c1OC` (stereo not given), with inactive: -0.14%. As for `COc1cc(C(=O)NCC2(N3CCOCC3)CCCCC2)cc(Cl)c1OC(C)C`, the activation was inactive: 0.15%. The result for `Cc1cccc(OCC(=O)OC2CN3CCC2CC3)c1` (stereo not given) reads inactive: -0.16%. As to `CCOP1(=S)c2c(C)nn(CCC#N)c2N=C(c2ccc(F)cc2)N1C` (stereo not given), the activation is inactive: -0.3%. The result for `O=[N+]([O-])c1ccc2c(c1)nnn2O` reads inactive: -0.04%; that for `O=P(Nc1nccs1)(Oc1ccccc1)Oc1ccccc1`, inactive: 0.39%; that for `O=P(Nc1nccs1)(c1ccccc1)c1nc2ccccc2s1` (stereo not given), inactive: 0.81%. On to `CCOP1(=S)c2c(C)nn(CCC#N)c2N=C(c2ccccc2F)N1C` (stereo not given), for which the activation was inactive: -0.06%. Consider `O=P1(Nc2ncccn2)COc2ccccc2OC1`, for which the activation was inactive: -0.13%. Then `Cc1ccc(OCC(=O)OC2CN3CCC2CC3)cc1` (stereo not given), with inactive: -0.32%. The result for `O=P1(Nc2ccc(Br)cn2)COc2ccccc2OC1` reads inactive: -0.59%; that for `CC1CCC(C(C)C)C(OP(=O)(Nc2ccccn2)c2ccccc2)C1` (stereo not given), inactive: -0.31%; that for `Cc1nn(-c2ccccc2)c2c1P(=O)(N1CCOCC1)N(C)C(c1ccccc1)=N2` (stereo not given), inactive: -0.27%. On to `CN(C)C1(CNC(=O)c2ccc(S(C)(=O)=O)cc2)CCCCC1`, for which the activation is inactive: 0.05%. The result for `CN(C(=O)Cc1ccc(Cl)c(Cl)c1)[C@@H]1CCCC[C@H]1N1CCCC1` reads inactive: 0.5%. Regarding `CC(C)/C=N\N=C(\N)N[N+](=O)[O-]`, the activation is inactive: -0.16%. The result for `CC1(CBr)Cn2c(nc3ccccc3c2=O)S1` (stereo not given) reads inactive: -0.28%; that for `O=P1(Nc2ccccn2)COc2ccccc2OC1`, inactive: -0.26%; that for `Clc1n[nH]nc1-c1nn[nH][15n]1`, inactive: 0.23%. Take `CCC(C)N(CC(C)C)C(=S)SC(NC(C)=O)C(Cl)(Cl)Cl` (stereo not given): the activation is inactive: -0.24%.

Turning to `COP1(=S)c2c(C)nn(CCC#N)c2N=C(c2ccc(F)cc2)N1C` (stereo not given), the activation is inactive: 0.02%.

Regarding `O=C(COc1ccccc1)OC1CN2CCC1CC2` (stereo not given), the activation is inactive: -0.19%.

As to `Cc1cc(SC(NC=O)C(Cl)(Cl)Cl)ncn1` (stereo not given), the activation is inactive: -0.41%. On to `O=P(Nc1ccccn1)(c1cccc2ccccc12)c1cccc2ccccc12`, for which the activation is inactive: -0.36%. Regarding `Cc1cc(SC(NC(=O)c2ccccc2)C(Cl)(Cl)Cl)nc(C(C)C)n1` (stereo not given), the activation was inactive: -0.12%. As for `ClCCSc1nnc(-c2cccnc2)o1`, the activation is inactive: -0.17%.

As for `O=[N+]([O-])c1cc([N+](=O)[O-])c(-c2ccn[nH]2)s1`, the activation is inactive: -0.3%. The result for `CC(C)NC(=O)NP(=O)(Oc1ccccc1)Oc1ccccc1` reads inactive: -0.07%; that for `CCN(CC)C(=S)SC(NC=O)C(Cl)(Cl)Cl` (stereo not given), inactive: -0.37%; that for `Cc1ccc2nc3c(c(C)c2c1)CC(C(Cl)Cl)S3` (stereo not given), inactive: -0.11%. Then `COc1ccc(N/C(=N/P(=O)(N2CCOCC2)N2CCOCC2)N2CCOCC2)cc1`, with inactive: 0.12%; and `Cc1c2c(nc3ccccc13)SC(C(Cl)Cl)C2` (stereo not given), with inactive: -0.35%. The result for `Cc1cc(=O)[nH]c(N[N+](=O)[O-])n1` reads inactive: -0.19%; that for `O=C(OC1CN2CCC1CC2)C12CC3CC(CC(C3)C1)C2` (stereo not given), inactive: 0.05%; that for `COc1ccc2nc(NP(=O)(c3ccccc3)c3ccccc3)sc2c1`, inactive: -0.65%.
